ChEMBL document CHEMBL4196220, “Synthesis and Discovery of Arylpiperidinylquinazolines: New Inhibitors of the Vesicular Monoamine Transporter” (J Med Chem, 2018)
The source made the active and inactive calls. No cut-off for these calls is given here.

Biological target: Synaptic vesicular amine transporter (Homo sapiens, UniProt Q05940)
Assay: Binding affinity to human VMAT2 expressed in HEK293 cell membranes in presence of 2 mM Mg-ATP by scintillation counting method
In short: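 Membranes from confluent HEK-293 cells stably expressing human VMAT2, prepared by osmotic shock and restored with Tris/K tartrate/MgSO4. About 50−75 μg protein per assay with [3H](+)-5b at 50−100 nM final. Incubated 60 min at 4 °C in the dark. Nonspecific binding taken with 10 μM O-7443. Filtration, then beta counting.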

COc1cc2c(cc1OC)C1CC(O)C(CC(C)C)CN1CC2 (stereo unspecified)
Activity: Active
